Reference: ChEMBL document CHEMBL3272151, “Quantitative structure-activity relationship of chymotrypsin-ligand interactions” (J Med Chem, 1977)

Assay: Binding affinity to chymotrypsin (unknown origin) assessed as acetylation at pH 7
Conditions: Homo sapiens

O=C(Oc1ccc([N+](=O)[O-])cc1[N+](=O)[O-])c1ccc([N+](=O)[O-])cc1
log K: 6.17
